Results from patent publication US20220024983A1, “BICYCLIC PEPTIDE LIGANDS SPECIFIC FOR IL-17” (BicycleRD Limited, priority 2018, published 2022).
Where two headings read alike, the source gives them in different places.

Legend:
[1] = molecular target: T1, hIL17-A / IL17A dimer (Homo sapiens, UniProt Q16552); experiment: IL-17A human binding assay
T1 sequence (Q16552 24-155): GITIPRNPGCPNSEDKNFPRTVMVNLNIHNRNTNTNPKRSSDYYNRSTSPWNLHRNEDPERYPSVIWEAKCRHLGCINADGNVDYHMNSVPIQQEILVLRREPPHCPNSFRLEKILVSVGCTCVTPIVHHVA
Method: (§1) IL-17A, IL-17E and IL-17F binding was determined using an analogous method to that described in WO 2011/141823.
(§2) Selected peptide ligands of the invention were tested in the above mentioned IL-17A, IL-17E and IL-17F human and mouse binding assays and the results are shown in Tables 1 and 2: […]

[2] = molecular target: T2, IL17A dimer (Mus musculus, UniProt Q62386); experiment: IL-17A mouse binding assay; conditions: Table 2, Mouse IL17A dimer
T2 sequence (Q62386 26-158): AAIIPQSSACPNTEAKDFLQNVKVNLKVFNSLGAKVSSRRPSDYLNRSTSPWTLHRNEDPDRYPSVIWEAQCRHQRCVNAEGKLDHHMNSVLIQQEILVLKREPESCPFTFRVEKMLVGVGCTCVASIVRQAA
Method: as §1, §2

[3] = molecular target: T3, hIL17-E (Homo sapiens, UniProt Q9H293); experiment: IL-17E human binding assay; conditions: Table 1, human
T3 sequence (Q9H293 33-177): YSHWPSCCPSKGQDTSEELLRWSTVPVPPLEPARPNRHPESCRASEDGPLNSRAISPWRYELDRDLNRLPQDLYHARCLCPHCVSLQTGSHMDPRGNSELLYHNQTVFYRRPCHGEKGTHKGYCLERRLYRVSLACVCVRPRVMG
Method: as §1, §2

[4] = molecular target: T4, hIL17-F / IL17F dimer (Homo sapiens, UniProt Q96PD4); experiment: IL-17F human binding assay; conditions: Table 2, Human IL17F dimer; read-out: Kd
T4 sequence (Q96PD4 31-163): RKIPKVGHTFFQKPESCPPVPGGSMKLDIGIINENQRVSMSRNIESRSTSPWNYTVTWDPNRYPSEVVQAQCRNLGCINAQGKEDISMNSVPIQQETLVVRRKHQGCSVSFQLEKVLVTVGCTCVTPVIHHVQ
Method: as §1, §2

[5] = molecular target: T5, IL17A/F dimer (Homo sapiens, UniProt Q16552+Q96PD4); experiment: IL-17A/F human binding assay; conditions: Table 2, Human IL17A/F dimer
T5 sequence (Q16552 24-155): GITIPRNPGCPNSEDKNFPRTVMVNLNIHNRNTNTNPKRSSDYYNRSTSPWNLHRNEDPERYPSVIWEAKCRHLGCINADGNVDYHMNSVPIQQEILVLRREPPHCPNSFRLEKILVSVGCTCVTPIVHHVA
T5 sequence (Q96PD4 31-163): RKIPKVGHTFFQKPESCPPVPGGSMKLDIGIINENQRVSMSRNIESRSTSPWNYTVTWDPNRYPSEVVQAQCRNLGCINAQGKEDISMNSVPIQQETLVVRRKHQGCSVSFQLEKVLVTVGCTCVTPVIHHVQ
Method: as §1, §2

[6] = molecular target: T6, human IL-17A dimer (human, UniProt Q16552 24-155); experiment: FP competition, competitor: tracer BCY2311
T6 construct: also called hIL17-A
T6 sequence (looked up): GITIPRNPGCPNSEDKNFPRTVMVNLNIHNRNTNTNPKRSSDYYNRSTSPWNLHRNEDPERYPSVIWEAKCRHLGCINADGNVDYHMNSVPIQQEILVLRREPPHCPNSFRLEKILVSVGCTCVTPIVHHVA
Method: (§3) Affinity determination by fluorescence polarization (FP) competition. Bicycles were screened to determine affinity (Ki) in a fluorescence polarisation assay where in competition with a bicycle labelled with fluorescein (referred to as tracer) with a known affinity for IL-17A. Peptides were diluted to an appropriate concentration in assay buffer (PBS+0.01% Tween20, adjusted to pH7.4 using NaOH (1M)) with a maximum of 1% DMSO, then serially diluted 1 in 2 into assay buffer. Into black 384-well low volume plates, 5 µL of diluted peptide was added to the plate followed by 10 μL of IL-17A (75 nM) then 10 μL tracer added to a final concentration of 1 nM. Measurements were conducted on a BMG PHERAstar FS equipped with an “FP 485 520 520” optic module which excites at 485 nm and detects parallel and perpendicular emission at 520 nm. The PHERAstar FS was set at 25° C. with 200 flashes per well and a positioning delay of 0.1 second, with each well measured at 5 to 10 minute intervals for 60 minutes. The gain used for measurements was determined at the point of experiment on a tracer alone well. Data analysis was performed in Dotmatics where mP values were fit to the Cheng Prusoff equation in order to generate a Ki value.
(§4) Selected peptide ligands of the invention were tested in the above mentioned human FP competition assay and the results are shown in Table 3: […]

[7] = molecular target: T6, human IL-17A dimer; experiment: FP competition, competitor: tracer BCY2315
Method: as §3, §4

[8] = molecular target: T6, human IL-17A dimer; experiment: FP competition, competitor: tracer BCY2311; Ki Mean column, n=2
Method: as §3, §4

[9] = molecular target: T6, human IL-17A dimer; experiment: FP competition, competitor: tracer BCY2311; Ki Mean column, n=3
Method: as §3

[10] = molecular target: T6, human IL-17A dimer; experiment: FP competition, competitor: tracer BCY2311; Ki Mean column, n=5
Method: as §3, §4

[11] = molecular target: T6, human IL-17A dimer; experiment: FP competition, competitor: tracer BCY2315; Ki Mean column, n=2
Method: as §3

[12] = molecular target: T6, human IL-17A dimer; experiment: FP competition, competitor: tracer BCY2315; Ki Mean column, n=3
Method: as §3, §4

[13] = molecular target: T7, human IL-17E (human, UniProt Q9H293 33-177); experiment: binding assay, method analogous to WO 2011/141823; column head prints hIL17-F, read as IL-17E by paragraph 29 and paragraph 30
T7 construct: also called hIL17-E; IL-25
T7 sequence (looked up): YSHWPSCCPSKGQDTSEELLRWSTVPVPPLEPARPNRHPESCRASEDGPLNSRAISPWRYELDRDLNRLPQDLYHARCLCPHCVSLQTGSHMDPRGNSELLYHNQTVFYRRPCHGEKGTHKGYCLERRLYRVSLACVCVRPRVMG

[14] = molecular target: T6, human IL-17A dimer; experiment: FP competition, competitor: tracer BCY2311; Ki Mean column, n=4
Method: as §3, §4

[15] = molecular target: T6, human IL-17A dimer; experiment: binding assay, method analogous to WO 2011/141823
[16] = molecular target: T8, human IL-17F dimer (human, UniProt Q96PD4 31-163); experiment: binding assay, method analogous to WO 2011/141823; column head prints hIL17-E, read as IL-17F by paragraph 34 and paragraph 38
T8 construct: also called hIL17-F
T8 sequence (looked up): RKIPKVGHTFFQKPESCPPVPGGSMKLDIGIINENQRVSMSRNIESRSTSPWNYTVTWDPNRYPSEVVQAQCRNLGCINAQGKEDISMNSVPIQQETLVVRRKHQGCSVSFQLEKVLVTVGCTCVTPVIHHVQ

[17] = molecular target: T8, human IL-17F dimer; experiment: binding assay, method analogous to WO 2011/141823; column head prints hIL17-E, read as IL-17F by paragraph 38
[18] = Table 2, Human IL17A dimer, column Mean, read-out: Kd Mean
[19] = Table 2, Human IL17A dimer, read-out: Kd

[Mca]-G-[Sar5]-A-(SEQ ID NO: 1)-A [BCY2309]
Kd [1, 18]: 334 nM
Kd [1, 19]: 336 ± 71.5 nM
Kd [2]: > 1000 nM

A-(SEQ ID NO: 58)-A [BCY2203]
Kd [3]: 240 nM
Kd ([1]; Table 1, human, read-out: hIL17-A Binding Kd): 702 nM

A-(SEQ ID NO: 54)-A-[Sar6]-K-[Fl] [BCY2317]
Kd [1, 19]: 181 nM
Kd [2]: > 650 nM

A-(SEQ ID NO: 59)-A-[Sar6]-K-[Fl] [BCY2217]
Kd [4]: 401 nM

A-(SEQ ID NO: 58)-A-[Sar6]-K-[Fl] [BCY2222]
Kd [1, 19]: 702 nM
Kd [4]: 229 nM

A-(SEQ ID NO: 29)-A-[Sar6]-K-[Fl] [BCY2318]
Kd [1, 19]: 538 nM
Kd [2]: > 1000 nM

[Fl]G-[Sar5]-A-(SEQ ID NO: 1)-A [BCY2311]
Kd [1, 18]: 24.7 nM
Kd [1, 19]: 25.9 ± 6.19 nM
Kd [5]: > 1000 nM
Kd [4]: > 1000 nM
Kd [2]: > 650 nM

A-(SEQ ID NO: 30)-A-[Sar6]-K-[Fl] [BCY2319]
Kd [1, 19]: 657 nM
Kd [2]: 158 nM

A-(SEQ ID NO: 14)-A-[Sar6]-K-[Fl] [BCY2315]
Kd [1, 18]: 5.6 nM
Kd [1, 19]: 5.63 ± 0.73 nM
Kd [2]: > 650 nM

A-(SEQ ID NO: 31)-A-[Sar6]-K-[Fl] [BCY2320]
Kd [1, 19]: 282 nM
Kd [2]: > 650 nM

A-(SEQ ID NO: 49)-A-[Sar6]-K-[Fl] [BCY2316]
Kd [1, 19]: 372 nM
Kd [2]: > 650 nM

ACDTDVELCKFLGLDCA (Ci, Cii and Ciii cyclised with TBMB, Bicyclic peptide) [BCY2274]
Ki [6]: 51.5 nM
Ki [7]: 35.8 nM
Ki [8]: 50.8 nM

ACSDLELCEFLGLCA (Ci, Cii and Ciii cyclised with TBMB, Bicyclic peptide) [BCY2258]
Ki [6]: 410 nM
Ki [9]: 399 nM

ACDTDPELCRFLNLDCA (Ci, Cii and Ciii cyclised with TBMB, Bicyclic peptide) [BCY2273]
Ki [6]: 85.2 nM
Ki [7]: 34.2 nM
Ki [10]: 84.3 nM

ACDTDPELCRFLGLDCA (Ci, Cii and Ciii cyclised with TBMB, Bicyclic peptide) [BCY2286]
Ki [6]: 25 nM
Ki [7]: 15.7 nM
Ki [9]: 23.3 nM
Ki [11]: 15.3 nM

CYEAELCEFLGLC (Ci, Cii and Ciii cyclised with TBMB; N-terminal acetyl (Ac), Bicyclic peptide) [BCY2239]
Ki [6]: 33.2 nM
Ki [10]: 32.3 nM

CYEDELCAFLGLC (Ci, Cii and Ciii cyclised with TBMB; N-terminal acetyl (Ac), Bicyclic peptide) [BCY2243]
Ki [6]: 30.4 nM
Ki [7]: 40.5 nM
Ki [12]: 39.8 nM

CYEDELCEWLNLC (Ci, Cii and Ciii cyclised with TBMB; N-terminal acetyl (Ac), Bicyclic peptide) [BCY2252]
Ki [7]: 1750 nM
Ki [11]: 1690 nM

CYEDELCEWLGLC (Ci, Cii and Ciii cyclised with TBMB; N-terminal acetyl (Ac), Bicyclic peptide) [BCY2246]
Ki [7]: 550 nM
Ki [11]: 546 nM

ACDDYQLCEFLGLCA (Ci, Cii and Ciii cyclised with TBMB, Bicyclic peptide) [BCY2259]
Ki [6]: 601 nM
Ki [9]: 598 nM

ACPNELYCFVTGNCA (Ci, Cii and Ciii cyclised with TBMB, Bicyclic peptide) [BCY2293]
Ki [6]: 281 nM
Ki [9]: 277 nM

ACLWKDNCTHWSLCA (Ci, Cii and Ciii cyclised with TBMB, Bicyclic peptide) [BCY2441]
Kd [13]: 392 nM

ACEDKELCEFFGLCA (Ci, Cii and Ciii cyclised with TBMB, Bicyclic peptide) [BCY2260]
Ki [6]: 276 nM
Ki [14]: 268 nM

ACYEDELCEFLGLCA (Ci, Cii and Ciii cyclised with TBMB, Bicyclic peptide) [BCY2235]
Ki [6]: 134 nM
Ki [14]: 130 nM

ACPQDLELCTFLFGDCA (Ci, Cii and Ciii cyclised with TBMB, Bicyclic peptide) [BCY2272]
Ki [6]: 281 nM
Ki [10]: 255 nM

ACDQDELMCFLTGHQCA (Ci, Cii and Ciii cyclised with TBMB, Bicyclic peptide) [BCY2265]
Kd [15]: 336 nM
Ki [6]: 822 nM
Ki [8]: 741 nM

ACDHSDFICWLNNFNCA (Ci, Cii and Ciii cyclised with TBMB, Bicyclic peptide) [BCY2203]
Kd [15]: 702 nM
Kd [16]: 240 nM

ACGQCSFSYWLNCA (Ci, Cii and Ciii cyclised with TBMB, Bicyclic peptide) [BCY2202]
Kd [17]: 373 nM
